Literature values as cited in patent US20220008553A1, “ANTI-ERBB2 ANTIBODY-DRUG CONJUGATE AND COMPOSITION THEREOF, PREPARATION METHOD THEREFOR, AND USE THEREOF” (SICHUAN KELUN-BIOTECH BIOPHARMACEUTICAL CO., LTD., priority 2015, published 2022).
Marks after values point to notes of the source that are not given here.

Conditions: rats, according to Bender et al., The AAPS Journal 2014; cited from earlier work

In the case of T-DM1, the “T1/2 (h)” value is given as 114* h.
